The record followed here is PubChem BioAssay AID743126 (The Scripps Research Institute Molecular Screening Center, 2013).

Chains of the proteins cited; added tags and fusions are not shown.
UniProt Q9NZ20, whole entry: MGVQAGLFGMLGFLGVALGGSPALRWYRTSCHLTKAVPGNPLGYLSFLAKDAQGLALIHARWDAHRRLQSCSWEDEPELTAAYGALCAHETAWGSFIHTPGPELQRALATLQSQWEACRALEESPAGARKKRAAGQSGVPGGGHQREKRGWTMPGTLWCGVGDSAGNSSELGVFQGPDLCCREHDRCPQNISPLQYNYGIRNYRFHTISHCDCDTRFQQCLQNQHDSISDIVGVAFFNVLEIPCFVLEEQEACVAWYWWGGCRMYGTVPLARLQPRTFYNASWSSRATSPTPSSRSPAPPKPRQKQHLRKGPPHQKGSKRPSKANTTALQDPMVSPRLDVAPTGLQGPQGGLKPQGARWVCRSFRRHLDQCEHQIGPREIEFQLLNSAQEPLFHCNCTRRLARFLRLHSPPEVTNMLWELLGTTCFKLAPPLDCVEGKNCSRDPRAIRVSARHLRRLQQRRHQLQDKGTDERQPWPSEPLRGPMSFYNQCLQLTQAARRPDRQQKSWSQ

The entries are a selection whose mix differs from that of the whole data set. The source made the active and inactive calls.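 How the source made its calls: active means inhibition above mean plus 3 SD of compounds lying within the high and low control bounds (cut at about 19% in these data); inactive means the rest.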

In the experiment the target is Group 3 secretory phospholipase A2 (Homo sapiens) (UniProt Q9NZ20). The experiment in a line: human group III sPLA2 inhibitors, primary screen, biochemical, QFRET, BODIPY PC-A2 liposome substrate (AID 743126).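 Further: 0% = median of test compound wells and 100% = no enzyme DMSO wells.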 To be noted: QFRET BODIPY PC-A2 liposome hydrolysis, fluorescence; at 12.2 µM; active compounds read high.
Broadly, the inhibition is the drop in the measured response relative to a control, in per cent. Regarding `CCC(=O)N(c1ccccc1)C1(COC)CCN(CCc2cccs2)CC1`, the inhibition was inactive: -5.64%.
For `CCC(=O)N(c1ccccc1)C1(COC)CCN(CCn2nnn(CC)c2=O)CC1` the value was inactive: 10.2%.
